Target: NK1-Rezeptor (Substanz P-Rezeptor) (Homo sapiens, UniProt P25103)
Assay: Receptor affinity for the NK1 receptor: displacement of 125I-labelled substance P on IM-9 cells
Settings: read-out: IC50-Werte; humane Lymphoblastoma-Zellen (IM-9) mit klonierten NK1-Rezeptoren; Verdrängung von 125J-markierter Substanz P; tested form: free base
Experimental: Die Rezeptoraffinität zum NK1-Rezeptor (Substanz P-Rezeptor) wurde an humanen Lymphoblastoma-Zellen (IM-9) mit klonierten NK1-Rezeptoren bestimmt, wobei die Verdrängung von ^125J-markierter Substanz P gemessen wird. Die so erhaltenen IC50-Werte betragen: Verb. A : 60 nM Verb. B : 21 nM Verb. C : 90 nM Verb. D : 45 nM [drawing 26]

The chains behind the UniProt entries cited, without tags or fusion partners.
UniProt P25103, whole entry: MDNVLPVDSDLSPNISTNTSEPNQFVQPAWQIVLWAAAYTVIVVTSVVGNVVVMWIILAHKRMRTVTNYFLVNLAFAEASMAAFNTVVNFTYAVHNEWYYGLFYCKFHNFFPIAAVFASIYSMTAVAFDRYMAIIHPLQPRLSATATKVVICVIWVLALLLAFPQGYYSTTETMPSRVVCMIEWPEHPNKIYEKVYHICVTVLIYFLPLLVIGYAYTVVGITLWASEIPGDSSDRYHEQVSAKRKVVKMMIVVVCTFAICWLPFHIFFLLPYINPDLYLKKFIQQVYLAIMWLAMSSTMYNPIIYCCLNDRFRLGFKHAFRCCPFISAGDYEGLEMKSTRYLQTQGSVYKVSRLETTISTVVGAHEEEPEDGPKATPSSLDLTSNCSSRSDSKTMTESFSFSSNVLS

IC50: 90 nM
SMILES: CN(Cc1ccccc1)C(=O)[C@H](CCc1ccccc1)NC(=O)[C@@H]1C[C@@H](O)CN1C(=O)c1c[nH]c2ccccc12
